## Binding of CDR-mutated scFvs to a peptide of the spike HR2 region

Target: peptide PDVDLGDISGINAS, taken from heptad repeat 2 (HR2) of SARS-CoV-2 spike.

Ab-14 is the parent antibody, in scFv form: VH, then three GGGGS repeats, then VL. The light chain is unchanged in all variants.
VH: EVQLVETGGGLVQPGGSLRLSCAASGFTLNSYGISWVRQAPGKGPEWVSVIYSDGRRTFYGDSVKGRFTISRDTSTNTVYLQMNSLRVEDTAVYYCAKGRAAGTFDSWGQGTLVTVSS
VL: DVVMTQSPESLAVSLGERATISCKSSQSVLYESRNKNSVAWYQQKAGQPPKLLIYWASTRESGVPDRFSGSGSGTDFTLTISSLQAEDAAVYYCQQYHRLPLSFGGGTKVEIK

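The starting antibody came from a phage panning campaign against this peptide. Variants in AAYL49 differ from the parent at up to three CDR positions; double and triple changes were sampled at random. AlphaSeq pools MATa yeast showing the antibodies with MATalpha yeast showing the peptide. Mating (16 h, 30 °C) was followed by selection of diploids and sequencing of their barcodes. Each replicate has its own calibration line, from reference interactions of the BCL2 family. Mating was done three times.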

Changes read parent residue, position, new residue, counted from the first residue of the VH shown. Values are log10 of the apparent Kd in nM; lower means stronger binding. "n.d." means that the variant was in the library but no mating with the target was seen in that replicate; the authors take this as a sign of poor binding, and no number exists. As a blank, each scFv also met three strains without target: over library AAYL49, 15% of these pairings were detected, typically at 4.06 and seldom below 2.83. For each scFv, signals with the empty controls are counted beside the result, with their mean in brackets. Parent in this assay: reference entry 0.65, copy in this library 4.11 (one replicate of three).

changes,"log10 Kd, replicates",empty controls
G26S+N30V+K65N,3.48 / 5.52 / 4.44,1/9 (4.07)
D54M+D62C+G103H,n.d. / n.d. / n.d.,4/9 (4.28)
G55M+K65L+G99Y,n.d. / n.d. / n.d.,0/9
R56K+T58K,1.07 / 0.89 / 0.93,0/9
G33A+S63C+G99Y,n.d. / n.d. / n.d.,0/9
D54T+V64Y+D106N,5.11 / 3.37 / n.d.,1/9 (2.52)
Y60S+G99R+G103P,4.07 / 3.10 / 4.83,4/9 (4.02)
F27A+R56K,n.d. / n.d. / n.d.,2/9 (3.11)
I51S+D62Y+G103Q,3.37 / n.d. / n.d.,1/9 (4.03)
N30T+V50D+K65R,n.d. / n.d. / 5.64,2/9 (4.39)
T28P+S53P+F59S,0.89 / 0.99 / 1.11,1/9 (4.21)
F27M+Y52L+R56T,n.d. / n.d. / n.d.,0/9
S53I+G103D+F105M,n.d. / n.d. / n.d.,0/9
S35L+R100P+G103R,n.d. / n.d. / 3.27,2/9 (3.27)
S53N+R100N+T104K,n.d. / n.d. / n.d.,1/9 (2.82)
D54K+G55N+T104C,n.d. / n.d. / n.d.,1/9 (2.65)
R57Q+T104M+F105S,3.35 / 3.30 / n.d.,3/9 (3.97)
G33Q+S35G+R57P,n.d. / n.d. / n.d.,0/9
G33Q+V64T+T104W,n.d. / n.d. / n.d.,1/9 (2.54)
G99H+A102G,n.d. / n.d. / n.d.,1/9 (2.29)
L29G+S35L+S53M,n.d. / n.d. / 4.24,0/9
S35Y+V50L+G55W,n.d. / n.d. / n.d.,0/9
I51L+T58M+S107L,1.81 / 1.94 / 1.52,0/9
G33N+T58G+V64M,n.d. / 2.34 / n.d.,3/9 (4.36)
T58K+G103A,2.88 / 2.19 / 2.94,2/9 (4.42)
S31Y+S63I+F105R,n.d. / n.d. / 3.85,4/9 (3.87)
L29Q+G55M+D62F,n.d. / n.d. / n.d.,2/9 (3.47)
Y52L+F59H+G103Q,n.d. / n.d. / 4.54,1/9 (4.76)
T28Y+L29A+Y52E,2.56 / n.d. / n.d.,0/9
G26M+D54A+S63H,n.d. / n.d. / n.d.,0/9
I51K+D106Q,n.d. / n.d. / n.d.,0/9
G61V+T104S+D106H,n.d. / n.d. / 2.86,0/9

From the list, the first 2 with no signal in any replicate:

changes,"log10 Kd, replicates",empty controls
D54M+D62C+G103H,n.d. / n.d. / n.d.,4/9 (4.28)
G55M+K65L+G99Y,n.d. / n.d. / n.d.,0/9

From the AlphaSeq antibody data of Engelhart et al. 2022 (doi:10.1038/s41597-022-01779-4), copy in the FLAb collection.